One assay deals with MDA-MB-231. Put plainly: Cell viability, EZ-Cytox tetrazolium assay, MDA-MB-231. The following applies: read-out: GI50(nM) MDA-MB-231; 72 hours; tested form: 2HCl.
A further assay deals with MV4;11 cells. Put plainly: Cell viability, EZ-Cytox tetrazolium assay, MV4;11. The following applies: read-out: Ic50 (nM) MV4;11; Table 1; 72 hours; tested form: HCl. The format is cell-based, human.

As usually defined, the GI50 is the concentration that inhibits growth by half. What is called IC50 is the concentration that gives 50% inhibition.

Consider `O=C1Nc2ccc(F)cc2/C1=C1/Nc2ccc(F)cc2/C1=N\OCCNC1CCNCC1`, for which, in the assay on MDA-MB-231, the GI50 is 972 nM.

With `O=C1Nc2ccccc2/C1=C1/Nc2ccccc2/C1=N\OCCNC1CCNCC1`, in the assay with MDA-MB-231, the GI50 stood at 320 nM.

As for `O=C1Nc2ccc(F)cc2/C1=C1/Nc2ccccc2/C1=N\OCCNC1CCNCC1`, the GI50 in the assay on MDA-MB-231 was found to be 362 nM.

Take `O=C1Nc2ccc(C(=O)O)cc2/C1=C1/Nc2ccccc2/C1=N\OCCN1CCOCC1`: the IC50 in the assay with MV4;11 cells stood at 1000 nM.
